Reference: patent US11186589B2, “Cyanoindoline derivatives as NIK inhibitors” (Janssen Pharmaceutica NV, priority 2016, dated 2021)

Chains of the proteins cited; added tags and fusions are not shown.
UniProt Q99558, whole entry: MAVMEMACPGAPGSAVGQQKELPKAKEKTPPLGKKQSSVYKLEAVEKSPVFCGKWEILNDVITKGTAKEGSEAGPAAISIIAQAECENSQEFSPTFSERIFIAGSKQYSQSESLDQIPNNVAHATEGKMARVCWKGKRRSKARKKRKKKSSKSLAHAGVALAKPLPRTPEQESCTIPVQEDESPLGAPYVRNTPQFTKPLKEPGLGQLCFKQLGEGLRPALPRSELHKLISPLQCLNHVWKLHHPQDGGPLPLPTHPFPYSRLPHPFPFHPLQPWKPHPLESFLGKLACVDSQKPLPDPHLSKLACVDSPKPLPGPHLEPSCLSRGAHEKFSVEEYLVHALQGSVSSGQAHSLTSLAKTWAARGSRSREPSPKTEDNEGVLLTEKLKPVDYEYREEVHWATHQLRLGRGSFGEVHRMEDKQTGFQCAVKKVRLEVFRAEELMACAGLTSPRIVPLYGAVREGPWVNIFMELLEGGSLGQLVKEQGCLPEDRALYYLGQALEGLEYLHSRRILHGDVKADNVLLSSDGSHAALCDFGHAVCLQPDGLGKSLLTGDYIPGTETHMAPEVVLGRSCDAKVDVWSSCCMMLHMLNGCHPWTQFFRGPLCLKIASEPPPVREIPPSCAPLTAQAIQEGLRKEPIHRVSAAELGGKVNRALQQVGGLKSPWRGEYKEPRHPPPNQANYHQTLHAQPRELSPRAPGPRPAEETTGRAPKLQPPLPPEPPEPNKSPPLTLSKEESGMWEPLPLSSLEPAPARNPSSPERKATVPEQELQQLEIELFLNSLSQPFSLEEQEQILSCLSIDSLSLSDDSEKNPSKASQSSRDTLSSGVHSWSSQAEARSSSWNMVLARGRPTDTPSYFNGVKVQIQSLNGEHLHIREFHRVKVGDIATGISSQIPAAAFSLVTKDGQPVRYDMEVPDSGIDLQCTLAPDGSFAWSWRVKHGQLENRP

How the values were obtained:
[1] = test system: KMS12-BM cells; test: Antiproliferative activity on KMS12-BM (NIK WT) multiple myeloma cells (CellTiter-Glo); conditions: read-out: KMS-12 Proliferation inhibition (IC50 (nM)), 96 hr treatment, averaged values
Experimental: (§1) Determination of Antiproliferative Activity on JJN-3 (NIK Translocated) and KMS12-BM (NIK WT) Multiple Myeloma Cells
(§2) All compounds tested were dissolved in DMSO and further dilutions were made in culture medium. Final DMSO concentration was 0.3% (v/v) in cell proliferation assays. Viability was assessed using CellTiter-Glo cell viability assay kit (Promega). The human JJN-3 and KMS12-BM cells (DSMZ) were cultured in RPMI 1640 medium supplemented with 2 mM L-glutamine, and 10% fetal calf serum (PAA). Cells were routinely kept as suspension cells at 37° C. in a humidified 5% CO2 atmosphere. Cells were passaged at a seeding density of 0.2×10^6/ml twice a week. Cells were seeded in black tissue culture treated 96-well plates (Perkin Elmer). Densities used for plating ranged from 15000 (JJN3) to 20000 (KMS12BM) cells per well in a total volume of […]. Drugs and/or solvents were added (15 μl) to a final volume of 150 μl. […] Luminescence was measured on a HTS Topcount (Perkin Elmer). […] For each experiment, controls (containing no drug) and a blank incubation (containing cells read at the time of compound addition) were run in parallel. […] For each sample, the mean value for cell growth (in relative light units) was expressed as a percentage of the mean value for cell growth of the control.

[2] = test system: JJN-3 cells; test: Antiproliferative activity on JJN-3 (NIK translocated) multiple myeloma cells (CellTiter-Glo); conditions: read-out: JJN-3 Proliferation inhibition (IC50 (nM)), JJN-3 (NIK translocated) cells, 96 hr treatment, averaged values
Experimental: as §1, §2

[3] = test system: P-IKKα levels in L363 cells; test: Effect of compounds on P-IKKα levels in L363 (NIK translocated multiple myeloma) cells; conditions: read-out: Inhibition of pIKKα_L-363 (IC50 (nM)), 2 hr treatment, averaged values
Experimental: Effect of Compounds on P-IKKα Levels in L363 (NIK Translocated Multiple Myeloma) Cells
All compounds tested were dissolved in DMSO and further dilutions were made in culture medium. Final DMSO concentration was 1% (v/v) in cell assays. The human L363 cells (ATCC) were cultured in RPMI 1640 medium supplemented with GlutaMax and 10% fetal calf serum (PAA). Cells were routinely maintained at densities of 0.2×10^6 cells per ml—1×10^6 cells per ml at 37° C. in a humidified 5% CO2 atmosphere. Cells were passaged twice a week splitting back to obtain the low density. Cells were seeded in 96 well plates (Nunc 167008) at 2×10^6 per ml media in a volume of 75 μl per well plus 25 μl 1 μg/ml recombinant human B-cell activating factor (BAFF/BLyS/TNFSF13B). Seeded cells were incubated at 37° C. in a humidified 5% CO2 atmosphere for 24 hr. Drugs and/or solvents were added (20 μl) to a final volume of 120 μl. Following 2 hr treatment plates were removed from the incubator and cell lysis was achieved by the addition of 30 μl 5× lysis buffer followed by shaking on a plate shaker at 4° C. for 10 min. At the end of this incubation lysed cells were centrifuged at 800×g for 20 min at 4° C. and the lysate was assessed for P-IKKα levels by sandwich immuno-assay carried out in anti-rabbit antibody coated Mesoscale plates. Within an experiment, the results for each treatment were the mean of 2 replicate wells. […]

[4] = target: NIK/MAP3K14 (Homo sapiens (Human), UniProt Q99558); test: Inhibition of auto-phosphorylation of recombinant human NF-kappaB-inducing kinase (NIK/MAP3K14) activity (AlphaScreen); conditions: read-out: Auto-phosphorylation inhibition of NIK (IC50 (nM)), averaged values over all measurements on all batches, 25 microM ATP
Experimental: Inhibition of Auto-Phosphorylation of Recombinant Human NF-kappaB-Inducing Kinase ([…]) Activity (AlphaScreen®)
NIK/MAP3K14 auto-phosphorylation activity was measured using the AlphaScreen® (αscreen) format (Perkin Elmer). All compounds tested were dissolved in dimethyl sulfoxide (DMSO) and further dilutions were made in assay buffer. Final DMSO concentration was […] in assays. Assay buffer was 50 mM Tris pH 7.5 containing 1 mM EGTA (ethylene glycol tetraacetic acid), 1 mM DTT (dithiothreitol), 0.1 mM Na3VO4, 5 mM MgCl2, 0.01% Tween® 20. Assays were carried out in 384 well Alphaplates (Perkin Elmer). Incubations consisted of compound, 25 microM Adenosine-5′-triphosphate (ATP), and 0.2 nM NIK/MAP3K14. Incubations were initiated by addition of GST-tagged NIK/MAP3K14 enzyme, carried out for 1 h at 25° C. and terminated by addition of stop buffer containing anti-phospho-[…] Ser176/180 antibody. Protein A Acceptor and Glutathione-Donor beads were added before reading using an EnVision® Multilabel Plate Reader (Perkin Elmer). Signal obtained in the wells containing blank samples was subtracted from all other wells and IC50's were determined by fitting a sigmoidal curve to % inhibition of control versus Log10 compound concentration.

- IC50 [1]: 204 nM
- IC50 [2]: 12 nM
- IC50 [3]: 4 nM
- IC50 [4]: 4.3 nM
Structure (SMILES): CNC(=O)Cn1ccc2c(Nc3nccc(-c4cc(C#N)c5c(c4)C(C)(CO)CN5)n3)cc(Cl)cc21 (stereo not shown)
